Measurements as given in US6608082B1, “Treatment of erectile dysfunction using isoquinoline compound melanocortin receptor ligands” (Lion Bioscience AG, priority 1998, dated 2003).

Chains of the proteins cited; added tags and fusions are not shown.
UniProt P41968, whole entry: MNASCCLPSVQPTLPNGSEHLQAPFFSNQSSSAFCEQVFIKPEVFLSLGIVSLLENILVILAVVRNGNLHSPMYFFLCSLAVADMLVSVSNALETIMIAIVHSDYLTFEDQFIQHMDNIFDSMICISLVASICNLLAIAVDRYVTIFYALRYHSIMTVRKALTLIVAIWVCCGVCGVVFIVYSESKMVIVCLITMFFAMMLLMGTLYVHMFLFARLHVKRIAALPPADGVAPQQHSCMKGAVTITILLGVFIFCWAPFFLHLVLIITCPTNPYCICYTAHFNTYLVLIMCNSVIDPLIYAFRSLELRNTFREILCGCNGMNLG

Experiments:
MCR-3 = MCR-3 (Homo sapiens, UniProt P41968); test: Melanocortin receptor binding assay, competition with 125I-HP 467, HEK 293 cells expressing hMCR-3; details: read-out: MC-3 IC50; binding to MCR-3, HEK 293 cells
From the text: All cell culture media and reagents were obtained from GibcoBRL (Gaithersburg Md.), except for COSMIC CALF SERUM (HyClone; Logan Utah). HEK-293 cell lines were transfected with the human MC receptors hMCR-1, hMCR-3, and hMCR-4 (Gantz et al., Biochem. Biophys. Res. Comm. 200:1214-1220 (1994); Gantz et al., J. Biol. Chem. 268:8246-8250 (1993); Gantz et al. J. Biol. Chem. 268:15174-15179 (1993); Haskell-Leuvano et al., Biochem. Biophys. Res. Comm. 204:1137-1142 (1994); each of which is incorporated herein by reference). […]
GF/B filter plates were prepared by soaking for at least one hour in 5 mg/ml BSA and 10 mM CaCl2. […] Filter plates were counted using a Packard Topcount (Packard Instrument Co.) and data analyzed using GraphPad PRISM v2.0 (GraphPad Software Inc.; San Diego Calif.) and Microsoft EXCEL v5.0a (Microsoft Corp.; Redmond Wash.).
To assay isoquinoline compounds, binding assays were performed in duplicate in a 96 well format. […] Cells were harvested on GF/B filter plates as described above and counted. […]

IL-10 = test: Increasing levels of IL-10 in mice (plasma ELISA); details: 90 or 105 minutes
Method: Isoquinoline compounds were administered intraperitoneally to mice in doses of 30, 100 or 300 μg/mouse or orally in doses of 300 or 600 μg/mouse. Levels of IL-10 were measured 90 or 105 minutes after administration as indicated. Samples were collected and diluted, when appropriate, as described in Example VI. A 100 μl sample of plasma was assayed by ELISA for IL-10. Briefly, ELISA plates were coated with rat anti-mouse IL-10 monoclonal antibody (Pharmingen; San Diego Calif.). Samples or known concentrations of IL-10 were added to the coated plates and incubated for 2 hr at 37° C. Plates were washed and incubated with biotinylated rat anti-mouse IL-10 (R&D Systems; Minneapolis Minn.) for 1 hr at 37° C. Plates were washed and incubated with streptavidin-HRP 30 min at 37° C., and HRP activity was detected with hydrogen peroxide and TMB using standard immunoassay procedures.
TRG 2408-30 is particularly effective at increasing IL-10 when administered orally.

IC50 (MCR-3): > 10 µM
SMILES: CCNc1ccc(C2C(CNCc3ccccc3O)c3ccccc3CN2CCCC[C@@H](CN)NC)cc1 (stereo partly drawn)
% IL-10 Induction, IP 30 (IL-10; 30 μg per mouse): 50 ± 16%
% IL-10 Induction, IP 300 (IL-10; 300 μg per mouse): 180 ± 50 %
